This note sets out measurements from US20230066008A1, “ANTIPARASITIC COMPOSITION” (DERMALIQ THERAPEUTICS, INC., priority 2020, published 2023).

For the data set the following is noted: 50 mg/ml (5% w/v) in F4H8, shaken at 280 rpm, RT for 16 h. As for the experimental part: 500 mg crotamiton (SynTech, Ph.Eur. grade) is weighed in a 5-ml volumetric flask; the flask is then filled to 5 ml with F6H8 (Novaliq, purity >99%), closed and shaken for 5 min at 280 rpm, RT.

For the molecule `CC1(C)C(C=C(Cl)Cl)C1C(=O)OCc1cccc(Oc2ccccc2)c1` (stereo not shown) [Permethrin, permethrin], the “Appearance of resulting solution” value is “clear”.
